# Values quoted from earlier work in article PMC9574855 (Journal of Medicinal Chemistry, 2022).
# Assays:
# PIK3CB = settings: 1 μM; cited from earlier work
# 403 WT human kinases = settings: 1 μM, published data, YM201636; cited from earlier work
structure (smiles),measurement,setting,value
"Nc1ccc(C(=O)Nc2cccc(-c3nc(N4CCOCC4)c4oc5ncccc5c4n3)c2)cn1 [YM201636, 6-amino-N-[3-[4-(4-morpholinyl)pyrido[3',2':4,5]furo[3,2-d]pyrimidin-2-yl]phenyl]-3-pyridinecarboxamide]",PIK3CB percent of control (PoC),PIK3CB,9.8 PoC
same,# scanMAX kinases with PoC < 10,403 WT human kinases,2
